The list shows a part of the results, in another mix than the full data. Some structures show a salt or complex split into parts, the way the source records it. The source made the active and inactive calls.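 Rule for the calls: active = plate-corrected calcium response at least 3 library SD above typical, normal starting fluorescence, not activating the receptor alone; inactive = the rest.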

By UniProt entry, the sequences of proteins in these tests, tags left out.
UniProt Q96LB2, whole entry: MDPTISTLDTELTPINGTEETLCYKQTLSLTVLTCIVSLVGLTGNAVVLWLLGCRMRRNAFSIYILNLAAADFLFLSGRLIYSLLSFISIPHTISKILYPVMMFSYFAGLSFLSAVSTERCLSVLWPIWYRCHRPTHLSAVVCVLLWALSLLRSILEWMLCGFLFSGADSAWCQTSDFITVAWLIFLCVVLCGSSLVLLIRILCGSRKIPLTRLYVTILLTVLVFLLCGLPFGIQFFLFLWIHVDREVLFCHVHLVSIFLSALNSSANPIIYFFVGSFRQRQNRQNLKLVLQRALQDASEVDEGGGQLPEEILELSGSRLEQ

For the experiment, the target named is Mas-related G-protein coupled receptor member X1 (Homo sapiens) (UniProt Q96LB2). Description: positive allosteric modulators of MrgX1, primary screen, HEK293 cells, Fluo-4 calcium flux (AID 588675).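 Note: compound read alongside a low EC10 to EC30 dose of BAM8-22 agonist.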 To be noted: MrgX1-HEK293, Fluo-4 calcium flux, FDSS, at 10 µM.
With `O=P(Nc1nccs1)(c1ccccc1)c1ccccc1`, the outcome was inactive.
In the case of `CC(C)C(=O)NC(Sc1ccccc1)C(Cl)(Cl)Cl` (centres undefined), the result was inactive.
Then `C(Cc1nn[nH]n1)Cc1nn[nH]n1`, with “inactive”; and `Nc1ccc([As](=O)(O)c2ccc([N+](=O)[O-])cc2)cc1`, with “inactive”; and `O=C(OC1CN2CCC1CC2)c1cccc(Cl)c1` (centres undefined), with “inactive”.
`O=[N+]([O-])c1ncn(CCn2cnc([N+](=O)[O-])n2)n1`: the outcome was inactive.
As for `O=[N+]([O-])c1ccc(OP2(=O)COCCO2)cc1` (centres undefined), the outcome was inactive.
As to `CC(=O)NC(SC(=S)N(C)C)C(Cl)(Cl)Cl` (centres undefined), the outcome was inactive.
On to `O=[N+]([O-])c1ccc(O)c(/C=N/Nc2ccc([N+](=O)[O-])cc2[N+](=O)[O-])c1`, for which the outcome was inactive.
Turning to `O=[As](O)(c1ccccc1)c1ccc(O)cc1`, the result was inactive.
`O=[N+]([O-])c1cc([N+](=O)[O-])c(NCC2CCS(=O)(=O)C2)c([N+](=O)[O-])c1` (centres undefined): the outcome was inactive.
Consider `O=P(Nc1nc2ccccc2s1)(c1ccccc1)c1ccccc1`, for which the result was inactive.
In the case of `CN(C)CCOC(=O)C(O)(c1ccccc1)C1CCCCC1` (centres undefined), the result was inactive.
As for `C[C@H]1OP(=O)(Oc2ccccc2)[C@H](O)[C@H](O)[C@H]1N=[N+]=[N-]` (some centres undefined), the entry is “inactive”.
As for `COc1ccc(NP(C)(=O)Oc2ccccc2OC)cc1` (centres undefined), the entry is “inactive”; as for `COc1ccc(OP(C)(=O)Nc2cccc(Br)c2)cc1` (centres undefined), “inactive”; as for `CN(C)C1(CNC(=O)c2ccc(Cl)c(S(N)(=O)=O)c2)CCCCC1`, “inactive”.
In the case of `O=P(Nc1ccccn1)(c1ccc(Br)cc1)c1ccc(Br)cc1`, the outcome was inactive.
Regarding `CP(=O)(Nc1ccccc1)Oc1ccc(F)cc1` (centres undefined), the outcome was inactive.
Take `Cc1ccccc1OP(=O)(Nc1ccccn1)Oc1ccccc1C`: the result was inactive.
Regarding `O=[N+]([O-])c1cc([N+](=O)[O-])c(OC2CCCCC2O)c([N+](=O)[O-])c1` (centres undefined), the outcome was inactive.
In the case of `CCCCCOc1ccc(NP(C)(=O)Oc2ccc(Cl)cc2Cl)cc1` (centres undefined), the outcome was inactive.
`CN(C)C(=O)Oc1noc2ccccc12`: the result was inactive.
In the case of `COC(=O)c1cc2c(s1)N=C(c1ccccc1)N(C)P2(=O)N1CCOCC1` (centres undefined), the outcome was inactive.
As for `Cc1ccc(OP(=O)(Nc2ccccn2)Oc2ccc(C)cc2)cc1`, the entry is “inactive”.
`CC(=O)NC(SC(=S)N(CC(C)C)CC(C)C)C(Cl)(Cl)Cl` (centres undefined): the result was inactive.
Take `O=C(OC1CN2CCC1CC2)c1ccccc1` (centres undefined): the result was inactive.
Take `CCC(=O)N1C2C3N(C(=O)CC)C1C1N(C(=O)CC)C(C(N1C(=O)CC)N3C(=O)CC)N2C(=O)CC`: the outcome was inactive.
In the case of `CCN(CC)CCCOC(=O)C(O)(c1ccccc1)C1CCCCC1` (centres undefined), the outcome was inactive.
As to `CCOC(=O)c1ccc(NP(C)(=O)Oc2ccc(F)cc2)cc1` (centres undefined), the result was inactive.
As to `COc1ccc(OP(C)(=O)Nc2ccc(SC(F)(F)F)cc2)cc1` (centres undefined), the outcome was inactive.
Then `O=C(NC1CCS(=O)(=O)C1)NP(=S)(Oc1ccccc1)Oc1ccccc1` (centres undefined), with “inactive”; and `CCNC(=S)/N=C(\N)N[N+](=O)[O-]`, with “inactive”; and `c1ccc(-c2nn[nH]n2)c(-c2nn[nH]n2)c1`, with “inactive”.
`CCOC(=O)NC(Sc1ccccc1)C(Cl)(Cl)Cl` (centres undefined): the result was inactive.
Then `Cc1ccc(NP(=O)(Oc2cccc(C)c2)Oc2cccc(C)c2)nc1`, with “inactive”; and `CC(=O)Nc1ccc([As](=O)(O)O)c(O)c1`, with “inactive”.
Then `COc1ccc2c(c1O)-c1c(O)c(OC)cc3c1[C@H](C2)[N+](C)(C)CC3.O=[N+]([O-])c1cc([N+](=O)[O-])c([O-])c([N+](=O)[O-])c1[O-]`, with “inactive”.
On to `CC(=O)Nc1ccc(Oc2c([N+](=O)[O-])cc([N+](=O)[O-])cc2[N+](=O)[O-])cc1`, for which the result was inactive.
Turning to `CC(=O)c1ccc(N2CC2c2ccncc2)cc1` (centres undefined), the outcome was inactive.
As for `O=C(OC1CN2CCC1CC2)c1ccc([N+](=O)[O-])cc1` (centres undefined), the result was inactive.
With `O=C(OCCN1CCN(CCOCc2ccccc2)CC1)C(O)(c1ccccc1)c1ccccc1`, the result was inactive.
As for `C[C@H]1OP(=O)(Oc2ccccc2)C[C@@H]2O[C@@H]21` (some centres undefined), the entry is “inactive”.
On to `C[C@@H]1C=CCP(=O)(Oc2ccccc2)O1` (some centres undefined), for which the outcome was inactive.
Then `CP(=O)(Nc1ccccc1F)Oc1ccccc1` (centres undefined), with “inactive”; and `CC(C)(C)C(=O)NC(Sc1ccccc1)C(Cl)(Cl)Cl` (centres undefined), with “inactive”.
For `CC(C)c1ccc(OP(C)(=O)Nc2ccc(SC(F)(F)F)cc2)cc1` (centres undefined), the outcome was inactive.
As for `O=P1(Nc2nc3ccc(Cl)cc3s2)COc2ccccc2O1` (centres undefined), the entry is “inactive”; as for `CCOc1ccc(C2=NCC(CBr)S2)cc1` (centres undefined), “inactive”.

The values are drawn from PubChem BioAssay AID588675 (Johns Hopkins Ion Channel Center, 2011).
